# Assay outcomes as filed in PubChem.
# PKA-R1A act: activators of PKA-R1A complex; AID 504707; PKA-R1A dissociation, Cy5-IP20 fluorescence polarization; scaled: DMSO 0%, 113 µM cGMP 100%; P00514+P68181; 340,000 compounds, 0.083% hits; activation, % at 11.4 µM;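 active = percent activation above the mean of all tested compounds plus 3 SD, cut at about 19% in these data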;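 also: higher means more PKAc released from R1A so a rise in polarization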
# Granule exo inh: lytic granule exocytosis inhibition | TALL-104 LAMP-1 surface exposure, flow cytometry; cells stimulated with thapsigargin and PMA | inhibition, % at 10 µM | 360,000 compounds, 0.66% hits | AID 651702;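 active = inhibition above about 55%, limit read from the data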
# UUG fidelity: alters start codon recognition fidelity in yeast | S. cerevisiae UUG-firefly luciferase reporter, luminescence/redox ratio | activity score, % at 18.7 µM | 350,000 compounds, 0.13% hits | AID 602363;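 active = replicate mean at a twofold rise or more, about +100% in these data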;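 note: firefly luciferase made from a UUG start codon reports start codon fidelity; reporter light over untreated wells divided by growth signal over untreated wells; some hits fall short of that in this replicate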
# pCIP destab: p/CIP protein destabilization. F442A p/CIP-EGFP cells, EGFP fluorescence, 16 h. Q05BA5. AID 1984. decrease of EGFP signal, % at 10 µM. 290,000 compounds, 0.01% hits;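 active = EGFP signal decrease of at least 30% at 10 µM or well 3 SD below plate mean, unless failing retest; inactive = the rest, including hits failing retest or dose response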
# ABCB6 inh MLPCN: inhibitors of human ABC transporter ABCB6 | Q9NP58 | K562-ABCB6 porphyrin accumulation, flow cytometry, 1 h; stronger effect = lower value | fluorescence ratio to DMSO, % at 10 µM | 360,000 compounds, 0.19% hits | AID 602162;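 active = fluorescence ratio to DMSO below 75%, the collection mean minus 3 SD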;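 also: signal is porphyrin accumulated inside mitochondria; lower ratio means ABCB6 inhibition with less porphyrin fluorescence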
# PKA-R2B act: activates the human PKA-R2B holoenzyme complex | activation, % at 11.4 µM | 340,000 compounds, 0.079% hits | PKA-R2B holoenzyme dissociation, Cy5-IP20 fluorescence polarization; R2B truncated from residue 108, S112A mutant; 0% DMSO only, 100% 113 µM cGMP | P22694+P31323;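 active = activation above a cutoff set at the mean over all compounds plus 3 SD, cut at about 18% in these data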;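 also: higher means more holoenzyme dissociation and a rise in polarization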
# R2B FP artifact: FP assay interference, PKA-R2B counter-screen; activation, % at 11.4 µM; 270 compounds, 6% hits; FP artifact counterscreen, fluorescence polarization; AID 504796; shares compounds with PKA-R2B act; in the data active = activation above about 20%;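 also: Cy5 labelled IP20 peptide probe with compound but no PKA protein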
# PKA-R2B confirm: PKA-R2B complex activation, confirmation. activation, % at 11.4 µM. fluorescence polarization. 270 compounds, 9% hits. shares compounds with PKA-R2B act; in the data active = activation above about 19%
# R1A FP artifact: counter-screen for PKA-R1A activators: fluorescence polarization artifacts. shares compounds with PKA-R1A act. Cy5-IP20 peptide alone, fluorescence polarization artifact counterscreen. activation, % at 11.4 µM. 280 compounds, 7% hits. AID 504799;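 active = mean activation over triplicate runs exceeds the adjusted cutoff derived for the parent primary screen, cut at about 19% in these data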;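 also: no PKA protein present so any polarization rise reflects compound interference; higher means stronger polarization artifact and likely false positive in parent screen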
# PKA-R1A act conf: confirmation of PKA-R1A complex activators | Cy5-IP20 fluorescence polarization, PKA-R1A holoenzyme dissociation | shares compounds with PKA-R1A act | 280 compounds, 9% hits | activation, % at 11.4 µM;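 active = mean activation over replicate wells exceeds the adjusted hit threshold taken from the earlier primary screen, cut at about 20% in these data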
# A number is an active result; 0 = inactive; - = not tested or not shown. A selection: hits, their analogues and other compounds. The true share with any hit is near 0.94%.
SMILES,PKA-R1A act,Granule exo inh,UUG fidelity,pCIP destab,ABCB6 inh MLPCN,PKA-R2B act,others
O=C1NC(=S)N(c2ccccc2F)C(=O)/C1=C\c1cccs1,0,75.7,0,0,0,0,
CCOc1ccc(N2C(=O)/C(=C\c3cccs3)C(=O)NC2=S)cc1,-,-,-,0,-,-,
CN1C2CCC1/C(=C/c1ccccn1)C(=O)/C2=C\c1ccccn1,0,64.5,0,0,0,0,
COc1cc2c(cc1O)C[C@H]1c3c(cc(O)c(OC)c3-2)CCN1C,0,0,0,-,0,0,
CN1CCc2cc3c(c4c2C1Cc1ccccc1-4)OCO3 (stereo not drawn),0,80.3,0,0,0,0,
CN1C(=O)/C(=C\c2ccc(Br)s2)C(=O)NC1=S,0,0,0,0,0,0,
O=C1NC(=S)NC(=O)C1=Cc1ccc(Br)s1,0,71.9,0,0,0,0,
O=C(O)[C@@H]1[C@@H](CO)[C@@H]2Cn3c(ccc(-c4ccncc4)c3=O)[C@H]1N2C(=O)C1CCCCC1,-,-,0,-,-,-,
O=C1NC(=O)C(=Cc2ccc(-c3ccccc3[N+](=O)[O-])o2)C(=O)N1,0,76.5,0,0,0,0,
O=C1NC(=O)C(=Cc2ccc(-c3cc(Cl)ccc3[N+](=O)[O-])o2)C(=O)N1,0,61.1,-,0,0,0,
CNS(=O)(=O)c1ccc(-c2ccc(C=C3C(=O)NC(=O)NC3=O)o2)cc1,0,0,0,0,0,0,
CN(C)C(=O)[C@@H]1[C@@H](CO)[C@@H]2Cn3c(cccc3=O)[C@H]1N2CC1CC1,-,-,0,-,-,-,
N#Cc1cccc(-c2ccc([C@H]3[C@@H](CO)N4CCCCN(C(=O)Cc5ccncc5)C[C@@H]34)cc2)c1,-,-,0,-,-,-,
C=C1C(=O)OC2CC3(C)OC3C3OC3C3=CC(OC3=O)C12 (stereo not drawn),-,0,0,-,36.0,-,
CN1CCc2cc(O)cc3c2[C@H]1Cc1ccc(O)c(O)c1-3,0,60.0,0,-,0,0,
O=C(Cc1cccnc1)N1CCCCN2[C@H](CO)[C@H](c3ccc(C#CC4(O)CCCC4)cc3)[C@H]2C1,-,-,0,-,-,-,
Cn1cccc1/C=C1/C(=O)NC(=S)N(Cc2ccc(F)cc2)C1=O,0,57.9,0,0,0,0,
N#Cc1cccc(-c2ccc([C@H]3[C@@H](CO)N4CCCCN(C(=O)Cc5ccccc5)C[C@@H]34)cc2)c1,-,-,0,-,-,-,
O=C(Cc1ccccn1)N1CCCCN2[C@@H](CO)[C@@H](c3ccc(-c4ccccc4F)cc3)[C@@H]2C1,-,-,0,-,-,-,
O=C(Cc1ccccc1)N1CCCCN2[C@H](CO)[C@H](c3ccc(C#Cc4ccccc4)cc3)[C@@H]2C1,-,-,0,-,-,-,
CCc1ccc(N2C(=O)NC(=O)/C(=C\C=C\c3ccco3)C2=O)cc1,0,76.4,0,0,0,0,
Cc1ccc(N2C(=O)NC(=O)/C(=C/C=C/c3ccco3)C2=O)cc1,0,0,-,0,0,0,
O=C(N/N=C/c1c(O)n(C2CCCCC2)c(=S)[nH]c1=O)c1ccccc1,0,0,0,0,12.0,0,
CN(CC1COc2ccccc2O1)c1nc(-c2cccnc2)nc2ccccc12 (stereo not drawn),0,86.7,0,-,0,0,
O=C(Cc1ccncc1)N1CCCCN2[C@H](CO)[C@H](c3ccc(C#Cc4ccccc4F)cc3)[C@@H]2C1,-,-,0,-,-,-,
SMILES,PKA-R1A act,Granule exo inh,UUG fidelity,pCIP destab,ABCB6 inh MLPCN,PKA-R2B act,others
CN(C)CC#Cc1ccc([C@@H]2[C@@H](CO)N3CCCCN(C(=O)Cc4ccccn4)C[C@H]23)cc1,-,-,0,-,-,-,
Cc1ccc(Sc2ccc(C=C3C(=O)N(C)C(=O)N(C)C3=O)o2)cc1,0,73.9,0,0,0,0,
CN1C(=O)C(=Cc2ccc(-c3cccc(Cl)c3)o2)C(=O)N(C)C1=O,-,-,-,0,-,-,
COC1CCC(OC2CC(C3(C)CCC4(CC(O)C(C)C(C(C)/C=C(\C)C(=O)C(C)CC(C)C(=O)O)O4)O3)OC3(OC(C4OC(O)(CO)C(C)CC4C)CC3C)C2C)OC1C (stereo not drawn),0,78.2,-,-,0,0,
CC1=C(O)C(=O)C=C2C1=CC=C1C2(C)CCC2(C)C3CC(C)(C(=O)O)CCC3(C)CCC12C (stereo not drawn),0,105.7,-,-,0,0,
CCC(CO)(C(=O)OC1C[N+]2(C)CCC1CC2)c1ccccc1 (stereo not drawn),0,0,0,0,0,19.6,R2B FP artifact=0;PKA-R2B confirm=0
CN(C(=O)c1ccc(Cl)nc1)C1(c2ccccc2Cl)CCCCC1=O (stereo not drawn),0,0,-,0,0,21.4,R2B FP artifact=0;PKA-R2B confirm=0
O=C(Cc1ccccn1)N1CCCCN2[C@@H](CO)[C@H](c3ccc(-c4ccccc4F)cc3)[C@@H]2C1,-,-,0,-,-,-,
O=C(Cc1ccccc1)N1CCCCN2[C@H](CO)[C@H](c3ccc(C#CC4(O)CCCC4)cc3)[C@H]2C1,-,-,0,-,-,-,
O=C(COc1ccccc1Cl)N1CCCC(N2CCN(c3ccc(F)cc3)CC2)C1 (stereo not drawn),19.0,0,0,0,0,0,R1A FP artifact=0;PKA-R1A act conf=0
CN(C(=O)Cc1ccc(Cl)c(Cl)c1)C(CN1CCCC1)c1cccc(OCC(=O)O)c1 (stereo not drawn),19.0,0,0,-,0,0,R1A FP artifact=0;PKA-R1A act conf=0
Cc1cccc(OCC(=O)N2CCN(Cc3ccc4c(c3)OCO4)CC2)c1,0,0,0,0,0,0,
CC1=CP(=O)(Oc2ccc([N+](=O)[O-])cc2)CC1 (stereo not drawn),19.1,0,-,-,0,0,R1A FP artifact=0;PKA-R1A act conf=0
C=C1[C@H]2CC[C@H]3[C@]4(C)C[C@H](O[C@@H]5OC(CO)[C@@H](OSOOO)[C@H](OS(=O)(=O)O)[C@H]5OC(=O)CC(C)C)C[C@@H](C(=O)O)[C@H]4CC[C@]3(C2)[C@H]1O (stereo partly drawn),18.6,0,0,-,0,0,R1A FP artifact=0;PKA-R1A act conf=0
O=C(Cc1cccnc1)N1CCCCN2[C@H](C1)[C@H](c1ccc(/C=C/c3ccccc3)cc1)[C@@H]2CO,-,-,0,-,-,-,
N#Cc1cccc(-c2ccc([C@@H]3[C@H](CO)N4CCCCN(C(=O)Cc5ccccc5)C[C@@H]34)cc2)c1,-,-,0,-,-,-,
O=C(Cc1ccccn1)N1CCCCN2[C@H](C1)[C@@H](c1ccc(C#Cc3ccccc3)cc1)[C@@H]2CO,-,-,0,-,-,-,
